In patent US20250276078A1, “Camptothecin Derivative And Ligand-drug Conjugate Thereof” (Baili-Bio (Chengdu) Pharmaceutical Co., Ltd., priority 2020, published 2025):

Tested on: MDA-MB-468
Assay: Cell activity test of camptothecin chiral derivatives (MTS)
Format: cell-based
Conditions: Homo sapiens, 72 h; MDA-MB-468, 3 days
Experimental: The cytotoxic activity of camptothecin chiral derivatives was determined by the following experimental procedure: the chiral derivatives of camptothecin were added to A431, MDA-MB-468, SK-BR-3, Bxpc-3 and SW620 tumor cells, respectively, and the cell survival rate was determined 72 hours later. Cell-based in vitro experiments are used to determine cell survival, cytotoxicity and programmed cell death induced by camptothecin drugs disclosed in the present invention.
The in vitro efficacy of camptothecin was determined by cell proliferation test. CellTiter 96® Aqueous One Solution Cell Proliferation Assay is commercially available (Promega Corp., Madison, WI). […] For detection, appropriate amount of CellTiter96® Aqueous One Solution Reagent is added directly into the medium of culture plate hole, incubated for 1-4 hours, and the absorbance value of 490 nm is read with enzyme label instrument.
The amount of methylate detected at 490 nm is proportional to the number of live cells in the culture. […]
In the invention, A431, MDA-MB-468, SK-BR-3, Bxpc-3 and SW620 are used as the research system of in vitro efficacy detection. […] By detecting the activity of dehydrogenase in mitochondria, IC50 was calculated to evaluate the inhibitory effect of camptothecin on cell proliferation. […]

With `CC[C@@]1(O)C(=O)OCc2c1cc1n(c2=O)Cc2c-1nc1cc(F)c(C)c3c1c2[C@H](NC(=O)[C@@H](O)C(F)(F)F)CC3` [Compound 6] the IC50 was 2.79 nM.
